Key:
[1] = biological target: METTL3 (Homo sapiens (Human), UniProt Q86U44); test: TR-FRET biochemical assay (time resolved-Förster resonance energy transfer); conditions: IC50 data for N6-adenosine-methyltransferase
Excerpt: The bonds formed are depicted in red. The IC50 values refer to the biochemical assay based on time resolved-Forster resonance energy transfer (TR-FRET). B) Superimposition of compounds 1 (grey, from X-ray with METTL3, PDB code: 7NHI) and 2 (cyan, drawn in Pymol).

Sequences of proteins named here, by UniProt entry; tags and fusion partners are left off.
UniProt Q86U44, whole entry, looked up: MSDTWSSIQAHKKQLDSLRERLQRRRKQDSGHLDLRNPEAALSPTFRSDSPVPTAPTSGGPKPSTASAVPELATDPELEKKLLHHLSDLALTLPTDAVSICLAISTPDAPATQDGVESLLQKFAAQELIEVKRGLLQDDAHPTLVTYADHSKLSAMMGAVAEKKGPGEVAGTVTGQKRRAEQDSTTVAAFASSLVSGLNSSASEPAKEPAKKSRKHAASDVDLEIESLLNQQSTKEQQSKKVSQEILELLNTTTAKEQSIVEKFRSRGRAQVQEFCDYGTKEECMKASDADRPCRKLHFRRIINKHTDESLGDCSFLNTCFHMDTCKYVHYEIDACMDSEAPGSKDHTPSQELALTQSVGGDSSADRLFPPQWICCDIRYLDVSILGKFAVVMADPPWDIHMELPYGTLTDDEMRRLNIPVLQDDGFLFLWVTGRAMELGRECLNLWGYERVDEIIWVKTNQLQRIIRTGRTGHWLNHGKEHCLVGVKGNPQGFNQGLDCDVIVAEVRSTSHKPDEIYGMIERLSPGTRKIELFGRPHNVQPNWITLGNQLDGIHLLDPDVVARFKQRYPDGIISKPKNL
UniProt Q9UBP6, whole entry, species assumed: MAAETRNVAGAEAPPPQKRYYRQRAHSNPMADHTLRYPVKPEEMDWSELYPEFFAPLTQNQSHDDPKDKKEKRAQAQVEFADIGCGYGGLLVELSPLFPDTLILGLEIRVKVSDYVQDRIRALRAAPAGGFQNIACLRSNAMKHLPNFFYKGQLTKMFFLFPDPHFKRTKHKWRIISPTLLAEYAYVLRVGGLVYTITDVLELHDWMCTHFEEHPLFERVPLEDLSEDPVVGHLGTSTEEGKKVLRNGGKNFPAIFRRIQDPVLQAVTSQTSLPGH

[2] = biological target: METTL1 (Homo sapiens (Human), UniProt Q9UBP6); test: Protein thermal shift assay, METTL1; type: binding; conditions: read-out: ΔTm

SMILES | IC50 [1] [µM] | ΔTm at 100 µM [2] [°C]
CNc1cc(N2CCC3(CC2)CN(c2ccc(CN4CCC(C)(F)CC4)cc2)CC(=O)N3)ncn1 [Compound 53, 4-(4-((4-Fluoro-4-methylpiperidin-1-yl)methyl)phenyl)-9-(6-(methylamino)pyrimidin-4-yl)-1,4,9-triazaspiro[5.5]undecan-2-one] | 0.069 | –
CC1(C)CCN(Cc2ccc(N3CC(=O)NC4(CCN(c5ncnc6[nH]ncc56)CC4)C3)cc2)CC1 [Compound 56, 4-(4-((4,4-dimethylpiperidin-1-yl)methyl)phenyl)-9-(1H-pyrazolo[3,4-d]pyrimidin-4-yl)-1,4,9-triazaspiro[5.5]undecan-2-one] | 0.14 | –
Nc1ncnc2c1ncn2[C@@H]1O[C@H](CSCC[C@H](N)C(=O)O)[C@@H](O)[C@H]1O [SAH, S-adenosyl-L-homocysteine, reference compound] | – | 3.5
